Only a part is listed here, and it is no random draw. Some results for these compounds are left out of this collection, so the calls shown say nothing about other tests. Active and inactive are the calls of the source. Rule as the data show it: active = inhibition above about 50%; inactive = the rest.
tested on: Plasmodium falciparum apicoplast DNA polymerase (apPOL); assay: Pf-apPOL inhibitors, biochemical, fluorescence (AID 1794808); conditions: Recombinant Pf-apPOL, molecular beacon fluorescence, 1.5 h; at 10 µM; stronger effect = higher value

Row | SMILES | inhibition
1 | COc1ccc(OC)c(C=C(C#N)C#N)c1 | inactive: -6.6%

From PubChem BioAssay AID1794808 (University of Kansas High Throughput Screening Laboratory, 2022)
